# Measured values from patent publication US20080026998 (published 2008).
# B1: factor VIIa-tissue factor (protein)
# chain 1: ANAFLEELRPGSLERECKEEQCSFEEAREIFKDAERTKLFWISYSDGDQCASSPCQNGGSCKDQLQSYICFCLPAFEGRNCETHKDDQLICVNENGGCEQYCSDHTGTKRSCRCHEGYSLLADGVSCTPTVEYPCGKIPILEKRNASKPQGRIVGGKVCPKGECPWQVLLLVNGAQLCGGTLINTIWVVSAAHCFDKIKNWRNLIAVLGEHDLSEHDGDEQSRRVAQVIIPSTYVPGTTNHDIALLRLHQPVVLTDHVVPLCLPERTFSERTLAFVRFSLVSGWGQLLDRGATALELMVLNVPRLMTQDCLQQSRKVGDSPNITEYMFCAGYSDGSKDSCKGDSGGPHATHYRGTWYLTGIVSWGQGCATVGHFGVYTRVSQYIEWLQKLMRSEPRPGVLLRAPFP
# chain 2: SGTTNTVAAYNLTWKSTNFKTILEWEPKPVNQVYTVQISTKSGDWKSKCFYTTDTECDLTDEIVKDVKQTYLARVFSYPAGNVESTGSAGEPLYENSPEFTPYLETNLGQPTIQSFEQVGTKVNVTVEDERTLVRRNNTFLSLRDVFGKDLIYTLYYWKSSSSGKKTAKTNTNEFLIDVDKGENYCFSVQAVIPSRTVNRKSTDSPVECMGQEKGEFRE
# Molecular target: BPTI (aprotinin) (bovine, UniProt P00974)
binder,measurement,value
B1,binding result,no binding
